Like-named read-outs stand apart in the source and are kept apart here.
Test system: Mytilus edulis haemolymph cell lysosomes
Details: 80 ppb CuSO4, 24 hrs

## O=S(=O)([O-])[O-].[Cu+2] [CuSO4, copper sulfate]
  Lysosomal Destabilization Ratio: 0.32±0.11
Listed as copper sulfate
  Lysosomal Destabilization Ratio: 0.32±0.11

— patent US6653135B1, “Dynamic protein signature assay” (University of Maryland, priority 2000, dated 2003)
